Data published in PubChem BioAssay AID630 (Emory University Molecular Libraries Screening Center, 2007).
The entries are a selection whose mix differs from that of the whole data set. The source made the active and inactive calls.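 Rule for the calls: active = compounds that reduce the energy-transfer binding signal between the protein and its labelled peptide by more than half; inactive = the rest.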

Chains of the proteins cited; added tags and fusions are not shown.
UniProt P84022, whole entry: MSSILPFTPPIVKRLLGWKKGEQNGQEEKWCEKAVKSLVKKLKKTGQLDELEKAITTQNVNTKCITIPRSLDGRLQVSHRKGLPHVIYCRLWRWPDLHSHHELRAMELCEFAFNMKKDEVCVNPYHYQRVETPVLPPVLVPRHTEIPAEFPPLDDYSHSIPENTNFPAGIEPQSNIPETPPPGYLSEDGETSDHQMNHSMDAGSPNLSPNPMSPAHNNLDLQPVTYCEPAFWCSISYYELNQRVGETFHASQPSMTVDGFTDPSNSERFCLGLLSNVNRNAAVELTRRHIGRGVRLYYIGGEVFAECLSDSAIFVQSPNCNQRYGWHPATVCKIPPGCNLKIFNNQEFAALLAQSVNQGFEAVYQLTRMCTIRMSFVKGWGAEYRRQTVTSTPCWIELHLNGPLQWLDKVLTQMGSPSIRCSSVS

Molecular target: Mothers against decapentaplegic homolog 3 (Homo sapiens) (UniProt P84022)
Experiment: blockers of Smad3 binding to FoxH1 – biochemical, TR-FRET, primary screen (AID 630);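 note: 0% = Smad3 plus labelled peptide maximal FRET and 100% = peptide-only background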
Conditions: TR-FRET Smad3/Dy647-FoxH1 peptide binding, europium anti-His; at 25 µM; hits give high values

Structure (SMILES) | inhibition
N/C(=N\O)c1c(N)no[n+]1[O-] | inactive: 0.92%
c1ccc(CN2CCC(Nc3ccccc3)CC2)cc1 | inactive: -0.68%
Fc1ccccc1NC1CCN(Cc2ccccc2)CC1 | inactive: -3.43%
CCOc1ncccc1C(=O)NCC1(N2CCOCC2)CCCCC1 | inactive: -6.32%
O=C(O)C1(Nc2ccccc2)CCN(Cc2ccccc2)CC1 | inactive: 9.79%
CCC(CO)(C(=O)OC1CN2CCC1CC2)c1ccccc1 (stereo unspecified) | inactive: 1.76%
O=C(NCC1(N2CCOCC2)CCCCC1)c1cc2ccccc2o1 | inactive: 1.09%
O=C(OC1CN2CCC1CC2)C1c2ccccc2Oc2ccccc21 (stereo unspecified) | inactive: -0.32%
N#CC1(Nc2ccccc2)CCN(CCc2ccccc2)CC1 | inactive: 0.75%
O=C(NCC1(N2CCOCC2)CCCCC1)c1cc(=O)[nH]c2ccccc12 | inactive: 6.71%
NC1CCCCC1.NP(=O)(O)N(CCCl)CCCl | inactive: 14.4%
